Key:
placenta = assay: Placental thyroid hormone quantification (HPLC-MS/MS); format: in vivo, mouse (CD-1); conditions: E17.5
Protocol: Thyroid hormones (T3, triiodothyronine; T4, thyroxine; rT3, reverse triiodothyronine) in placenta were analyzed according to the methods described in Leonetti et al. ([2016]). Briefly, ∼300mg ( 207–526mg ) of two to three pooled placental tissues of same-sex embryos was homogenized and digested for 16 h overnight in PRONASE® Protease (Streptomyces griseus) solution (EMD Millipore Corp.). Each pooled sample of two to three placentas was considered as one biological replicate and included placentas from the same litter when possible. Three biological replicates were used for each treatment group and each sex. Samples were spiked with an antioxidant solution (containing 37.5mg/mL each of citric acid, ascorbic acid, and dithiothreitol) and C13 isotopically labeled internal standards (T4, T3, and rT3), and cold acetone was added to stop the digestion reaction. Samples were vortex mixed and centrifuged three times for 2 min at 10,000 relative centrifugal force (rcf), and the supernatants were collected and combined. Sample pH was adjusted with 6M hydrochloric acid to pH<2 . A liquid–liquid extraction with cyclopentane was performed and the cyclopentane layer discarded; briefly, 1mL of cyclopentane was added to the supernatant and vortexed before the sample was centrifuged for 3 min at 3,000 rcf and the cyclopentane layer discarded, and this was repeated three times. A liquid–liquid extraction with ethyl acetate was performed; briefly, 3mL of ethyl acetate was added to the extract and vortexed before being shaken on a plate shaker for 30 min and centrifuged for 3 min at 3,000 rcf, and the ethyl acetate layer collected; this was repeated three times. Ethyl acetate extracts were dried down to 50μL under a gentle nitrogen stream and resuspended in 1mL of 0.01M hydrochloric acid in 10% methanol. Samples were purified by solid-phase extraction using SampliQ Optimized Polymer Technology (OPT) cartridges ( 3mL , 50mg; Agilent Technologies). Final extracts in 400μL of 1:1 methanol:water were filtered using Whatman® Mini-UniPrep® Syringeless Filters [Polytetrafluoroethylene (PTFE), 0.2μm; GE Healthcare]. Extracts were analyzed on an Agilent high-performance liquid chromatography (HPLC) 1260 with a Synergi™ 50mm×2mm Polar-RP column ( 2.5μm; Phenomenex) coupled to an Agilent model 6460 tandem mass spectrometer with electrospray ionization (HPLC-MS/MS-ESI). Mobile phases consisted of 10 mM formic acid in methanol and 10 mM formic acid in water. Laboratory processing blanks were extracted alongside the placental tissues to monitor background levels. No TH were detected in the lab blanks. Method detection limits (MDLs) were calculated using a signal-to-noise value of 3 for each analyte (T3, T4, and rT3). Values were normalized to the wet weight of placenta extracted for a final value of nanogram hormone/gram placenta. Values below the MDL (T4, 0.84 ng/g; T3, 0.42 ng/g; rT3, 0.67 ng/g ) were imputed using the calculation MDL×0.5 , and values lacking a quantifiable peak on mass spectrometry were excluded from the analysis.
TH concentrations in the placenta were quantified, and the ratios of T3:T4 and rT3:T4 in E17.5 placentas were assessed to evaluate potential disruption of peripheral TH control (e.g., impacts on thyroid deiodinase activity). Each end point was analyzed for sex×treatment interaction or for an overall effect of sex. Placenta TH were analyzed by analysis of variance using lme4 ([Bates et al. 2014]). Simultaneous tests for general linear hypotheses were corrected for multiple comparisons of means using Tukey contrasts in the package multcomp ([Hothorn et al. 2009]). Placental TH and their ratios were initially analyzed with embryo sex as an interaction term in the model, with the dose group as the predictor variable. Inclusion of a sex interaction or sex covariate in the final model was examined in a stepwise fashion. Internal dosimetry data were analyzed by analysis of variance. […]

[1] = Internal dosimetry of PFOA and GenX in maternal serum, maternal liver, amniotic fluid and whole embryos (UPLC-MS/MS); format: in vivo, mouse (CD-1)
Protocol: Maternal serum, maternal liver, amniotic fluid, and whole embryos were analyzed for PFOA and GenX concentrations using methods similar to those previously reported ([Conley et al. 2019]; [McCord et al. 2018]; [Reiner et al. 2009]; [Rushing et al. 2017]). Solid tissues were homogenized in RODI water at a ratio of approximately 1:3 tissue mass (milligrams) to liquid volume (microliters). Maternal serum, amniotic fluid, and tissue homogenates ( 25μL ) were spiked with internal standard suspended in 0.1M formic acid in a denaturation step, followed by a subsequent protein crash using ice-cold acetonitrile. Samples were vortex mixed after addition of formic acid and acetonitrile and then centrifuged at 10,000×g for 5 min. Extract supernatants were separated using a Waters ACQUITY UPLC® (Waters Corporation) fitted with a Waters ACQUITY UPLC® BEH C18 Column ( 130Å; 1.7μm; 2.1mm×50mm ). Detection was performed using a Waters Quattro Premier™ XE tandem quadrupole mass spectrometer in negative ionization mode. Stable isotopes of PFOA ( C313 , MPFOA; Wellington Laboratories) or GenX ( C313 , M3HFPO-DA; Wellington Laboratories) were used as internal standards for quantification of vehicle control samples (run against a nine-point calibration curve of 0–100 ng/mL ) and experimental samples (run against a nine-point calibration curve of 200–20,000 ng/mL ). Vehicle control and dosed animal samples were quantified for both PFOA and GenX using respective isotope-labeled chemicals and calibration curves.

rats = conditions: gestational exposure; ref Conley et al. 2019; cited from earlier work

What does the source list for `N.O=C(O)C(F)(OC(F)(F)C(F)(F)C(F)(F)F)C(F)(F)F` (stereo not shown) [GenX, ammonium 2,3,3,3-tetrafluoro-2-(heptafluoropropoxy)propanoate]?
Placental T3:T4 ratio (placenta; 2 mg/kg/d): 0.05±0.01 [5]; Placental rT3:T4 ratio (placenta; 2 mg/kg/d): 0.32±0.12 [6]; Placental T4 increase relative to controls (placenta; 2 mg/kg/d, attenuated after post hoc correction): 38%; Placental T3:T4 ratio (placenta; 10 mg/kg/d): 0.03±0.01 [6]; Placental T4 increase relative to controls (placenta; 10 mg/kg/d): 60%; Placental rT3:T4 ratio (placenta; 10 mg/kg/d): 0.27±0.08 [6]; Placental T3:T4 ratio (placenta; female, 2 mg/kg/d): 0.053 ± 0.02; Placental rT3:T4 ratio (placenta; female, 2 mg/kg/d): 0.409 ± 0.08; Placental T3:T4 ratio (placenta; female, 10 mg/kg/d): 0.032 ± 0.01; Placental rT3:T4 ratio (placenta; female, 10 mg/kg/d): 0.302 ± 0.09; Placental T3:T4 ratio (placenta; male, 2 mg/kg/d): 0.044 ± 0.01; Placental rT3:T4 ratio (placenta; male, 2 mg/kg/d): 0.225 ± 0.08; Placental T3:T4 ratio (placenta; male, 10 mg/kg/d): 0.035 ± 0.004; Placental rT3:T4 ratio (placenta; male, 10 mg/kg/d): 0.231 ± 0.04; GenX accumulation in liver, fold lower than PFOA ([1]; 2 mg/kg GenX vs 1 mg/kg PFOA, E11.5): 7.6 fold; GenX accumulation in liver, fold lower than PFOA ([1]; 2 mg/kg GenX vs 1 mg/kg PFOA, E17.5): 39.7 fold; GenX accumulation in liver, fold lower than PFOA ([1]; 10 mg/kg GenX vs 5 mg/kg PFOA, E17.5 (first mention)): 8.9 fold; GenX accumulation in liver, fold lower than PFOA ([1]; 10 mg/kg GenX vs 5 mg/kg PFOA, E17.5 (second mention)): 11.2 fold; LOAEL, up-regulated gene expression in PPAR signaling pathways in maternal and embryo liver (rats): 1 mg/kg/day

— article PMC7064328, “Evaluation of Maternal, Embryo, and Placental Effects in CD-1 Mice following Gestational Exposure to Perfluorooctanoic Acid (PFOA) or Hexafluoropropylene Oxide Dimer Acid (HFPO-DA or GenX)” (Environmental Health Perspectives, 2020)
